Experimental data from patent publication US20240360154A1, “AROYL SUBSTITUTED TRICYCLIC COMPOUND, PREPARATION METHOD THEREFOR AND USE THEREOF” (GENFLEET THERAPEUTICS (SHANGHAI) INC., priority 2020, published 2024).

Amino acid sequences for entries named in this document (tags omitted). A change or cut given only in a name is not applied to a line headed by its entry.
UniProt Q06187, whole entry: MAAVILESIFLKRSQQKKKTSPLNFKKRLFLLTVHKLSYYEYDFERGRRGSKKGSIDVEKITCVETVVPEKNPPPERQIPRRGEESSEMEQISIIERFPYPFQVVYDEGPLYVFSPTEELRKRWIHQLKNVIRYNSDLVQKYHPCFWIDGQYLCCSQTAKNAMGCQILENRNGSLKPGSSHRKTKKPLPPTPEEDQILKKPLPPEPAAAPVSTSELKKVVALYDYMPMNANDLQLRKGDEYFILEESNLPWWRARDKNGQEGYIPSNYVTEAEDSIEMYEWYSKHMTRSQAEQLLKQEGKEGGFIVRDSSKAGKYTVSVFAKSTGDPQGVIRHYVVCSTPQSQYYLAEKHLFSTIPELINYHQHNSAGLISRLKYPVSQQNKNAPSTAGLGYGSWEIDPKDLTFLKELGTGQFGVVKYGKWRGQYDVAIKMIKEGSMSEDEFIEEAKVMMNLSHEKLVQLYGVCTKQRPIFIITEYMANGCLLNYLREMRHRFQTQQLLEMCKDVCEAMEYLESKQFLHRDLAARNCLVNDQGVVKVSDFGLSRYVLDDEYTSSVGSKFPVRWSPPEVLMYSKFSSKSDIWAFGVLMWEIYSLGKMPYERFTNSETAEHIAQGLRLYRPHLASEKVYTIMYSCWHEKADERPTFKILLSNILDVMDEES
UniProt Q06187, whole entry C481S: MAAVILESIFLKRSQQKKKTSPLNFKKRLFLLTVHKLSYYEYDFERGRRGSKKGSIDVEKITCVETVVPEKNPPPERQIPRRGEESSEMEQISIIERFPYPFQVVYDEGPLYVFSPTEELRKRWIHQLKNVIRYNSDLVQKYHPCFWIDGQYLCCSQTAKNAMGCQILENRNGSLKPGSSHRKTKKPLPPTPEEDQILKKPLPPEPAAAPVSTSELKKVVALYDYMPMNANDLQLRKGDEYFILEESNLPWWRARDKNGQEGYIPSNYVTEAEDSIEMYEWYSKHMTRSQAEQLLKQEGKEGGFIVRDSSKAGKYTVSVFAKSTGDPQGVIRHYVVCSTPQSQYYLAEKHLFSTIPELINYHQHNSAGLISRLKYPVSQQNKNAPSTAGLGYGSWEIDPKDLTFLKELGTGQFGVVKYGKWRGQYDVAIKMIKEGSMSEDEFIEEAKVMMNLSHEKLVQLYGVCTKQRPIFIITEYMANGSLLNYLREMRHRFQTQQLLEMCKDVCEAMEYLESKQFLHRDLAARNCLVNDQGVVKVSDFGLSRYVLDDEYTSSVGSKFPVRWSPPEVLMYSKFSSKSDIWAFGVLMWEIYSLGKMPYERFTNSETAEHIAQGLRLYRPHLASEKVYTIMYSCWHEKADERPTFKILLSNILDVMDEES

How the values were obtained:
TMD-8 cells = assay: TMD-8 proliferation inhibition experiment; conditions: read-out: TMD-8 IC50; human diffuse large B lymphoma cells, three days incubation
Experimental: (§1) TMD-8 cells are human diffuse large B lymphoma (Mingzhou Bio, MZ-0832), cultured in 10% FBS+1% PS 1640 medium; OCI-LY10 is human diffuse large B lymphoma (BeNa Culture Collection, BNCC337742), cultured in 10% FBS+1% PS IMDM. Day 1: Cells at logarithmic growth phase were taken, counted and inoculated 600 TMD-8 or 2000 OCI-LY10 cells in a 384-well cell culture plate and cultured overnight. Day 2: A 3-fold gradient concentration stock solution of 400× compound was prepared with DMSO, and diluted 40-fold to a 10× compound stock solution with culture medium. The 10× compound stock solution was added to each cell culture well with a final concentration of 1× compound stock solution and a DMSO content of 0.25%. DMSO was used as experimental control, and culture medium was used as blank control. The incubation was continued for three days after compound addition. On the fifth day, 25 μL of […] was added to each well, mixed well and incubated for 10 minutes, then the chemiluminescence value (RLU value) was read. The cell proliferation inhibition rate (%)=(RLUcontrol−RLUcompound)/(RLUcontrol−RLUblank)×100% was calculated. The compound gradient dilution concentration and the corresponding cell proliferation inhibition rate were fit by using XLFit four-parameter method, and IC50 value was calculated.

p-BTK (C481S) = p-BTK (C481S) (Homo sapiens (Human), UniProt Q06187, C481S); assay: p-BTK cell experiment, HEK293 transfected with C481S-BTK plasmid (P-BTK Y223 sandwich ELISA); conditions: read-out: HEK293 p-BTK (C481S) IC50, HEK293 cells, compound cultured for two hours
Experimental: (§2) Day 1: HEK293 cells (ADDEXBIO, T0011001) at logarithmic growth phase were taken, digested with enzyme EDTA, collected and counted, and 2E6 cells were inoculated in a 10 cm culture dish and cultured overnight. Day 2: A mixed solution containing 6 μg of WT-BTK/C481S-BTK plasmid and 18 μL of FuGENE HD transfection reagent was prepared by using 1000 μL of Opti-MEM. After standing at room temperature for 10 minutes, the mixed solution was slowly added to the culture dish with a pipettor and cultured overnight. Day 3: The culture dish was taken out, and the cells were digested with enzyme EDTA, collected and counted, and 1E4 cells were inoculated in a 96-well cell culture plate and cultured overnight. A 3.16-fold gradient concentration stock solution of 1000× compound was prepared using DMSO, and placed at room temperature. Day 4: A prepared 1000× compound stock solution was taken, and diluted 200-fold to 5× compound stock solution with culture medium. 5× compound stock solution was added to each cell culture well with a final concentration of 1× compound stock solution and a DMSO content of 0.1%. DMSO was used as an experimental control. After the compound was added and cultured for two hours, the residual culture medium was removed. 100 μL of cell lysis buffer was added to each well, stood on ice for 30 minutes, and ultrasonically lysed with ice water for 5 minutes. After diluting the cell lysate in proportion, 80 μL of the mixture was transfer to an ELISA plate, and 80 μL of cell lysis buffer was added to the blank well. After incubating in an incubator at 37° C. for 2 hours, the plate was taken and the antibody incubation and color development termination operation were completed according to the instructions of Pathscan P-BTK (Y223) Sandwich ELISA Kit (Cell Signaling #23843 CA), and finally the OD value was read. The inhibition rate of the compound (%)=(ODcontrol−ODcompound)/(ODcontrol−ODblank)×100% was calculated. The compound gradient dilution concentration and the corresponding cell proliferation inhibition rate were fit by using Prism 8 four-parameter method, and IC50 value was calculated.

p-BTK (WT) = p-BTK (WT) (Homo sapiens (Human), UniProt Q06187); assay: p-BTK cell experiment, HEK293 transfected with WT-BTK plasmid (P-BTK Y223 sandwich ELISA); conditions: read-out: HEK293 p-BTK (WT) IC50, HEK293 cells, compound cultured for two hours
Experimental: as §2

BTK (C481S) = BTK (C481S) (Homo sapiens (Human), UniProt Q06187, C481S); assay: BTK C481S enzyme experiment (ADP-Glo kinase assay); conditions: read-out: BTK(C481S) IC50; 10 nM BTK C481S, ATP 125 μM, Poly(Glu4, Tyr1), 90 minutes at 20° C.
Experimental: (§3) A 3-fold gradient concentration stock solution of 1000× compound was prepared using DMSO and diluted 100-fold to 10× compound stock solution using reaction buffer (50 mM HEPES, pH 7.5, 0.0015% Briji-35, 2 mM DTT, 10 mM MgCl2), and the 10× compound stock solution was transferred to a 384-well plate. Enzyme reactions were set up with BTK Kinase Enzyme System (Promega Catalog #V2941) or BTK (C481S) Kinase Enzyme System (Promega Catalog #VA7033). First, a 2× enzyme solution containing 10 nM BTK or 10 nM BTK C481S was prepared with reaction buffer and added to the plate, and incubated with the compound for 10 minutes. Then, a 2.5× substrate solution containing ATP (125 μM) and Poly(Glu4, Tyr1) (0.05 μg/μL) was prepared with reaction buffer and added to the plate, and reacted at 20° C. for 90 minutes. Finally, the kinase activity was detected according to the experimental steps provided by ADP-Glo™ kinase Assay Kit (Promega, #V9101), and finally the luminescence chemiluminescence value was read. DMSO was used as the maximum signal value, and adding no enzyme was used as the minimum signal value. The inhibition rate of the compound (%)=(maximum signal value−compound signal value)/(maximum signal value−minimum signal value)×100% was calculated. The compound gradient dilution concentration and the corresponding inhibition rate of the enzyme activity were fit by using XLFit four-parameter method, and IC50 value was calculated.

OCI-LY10 cells = assay: OCI-LY10 proliferation inhibition experiment; conditions: read-out: OCI-ly10 IC50; human diffuse large B lymphoma cells, three days incubation
Experimental: as §1

BTK = BTK (Homo sapiens (Human), UniProt Q06187); assay: BTK enzyme experiment (ADP-Glo kinase assay); conditions: read-out: BTK(WT) IC50; 10 nM BTK, ATP 125 μM, Poly(Glu4, Tyr1), 90 minutes at 20° C.
Experimental: as §3

Structure (SMILES) | IC50 (p-BTK (C481S)) [nM] | IC50 (p-BTK (WT)) [nM] | IC50 (BTK (C481S)) [nM] | IC50 (OCI-LY10 cells) [nM] | IC50 (BTK) [nM] | IC50 (TMD-8 cells) [nM]
CN1C(=O)C2(CCOC2)Nc2c1cnc1[nH]cc(C(=O)c3ccc(Oc4ccccc4)cc3Cl)c21 (stereo not shown) | 340 | 359 | 35.2 | 903 | 48.9 | 247
N#CC1CCC2(C1)Nc1c(cnc3[nH]cc(C(=O)c4ccc(Oc5ccccc5)cc4Cl)c13)NC2=O (stereo not shown) |  |  |  |  |  | 142
O=C(c1ccc(Oc2ccccc2)cc1Cl)c1c[nH]c2ncc3c(c12)N[C@]1(CC[C@H](CO)OC1)C(=O)N3 (single isomer, unassigned) | 79 | 25.1 | 4.8 |  | 5.5 | 49.7

Continued, in another order:

IC50 (p-BTK (C481S)) [nM] | IC50 (p-BTK (WT)) [nM] | IC50 (BTK (C481S)) [nM] | IC50 (OCI-LY10 cells) [nM] | IC50 (BTK) [nM] | Structure (SMILES) | IC50 (TMD-8 cells) [nM]
135 | 53 |  |  |  | O=C(c1ccc(Oc2ccccc2)cc1Cl)c1c[nH]c2ncc3c(c12)N[C@@]1(CC[C@@H](CO)OC1)C(=O)N3 | 
 |  | 4.1 |  | 3.6 | O=C(c1ccc(Oc2ccccc2)cc1Cl)c1c[nH]c2ncc3c(c12)N[C@@]1(CC[C@@H](CO)OC1)C(=O)N3 (single isomer, unassigned) | 64.2
50.1 | 48.1 | 3.4 |  | 4.3 | O=C(c1ccc(Oc2ccccc2)cc1Cl)c1c[nH]c2ncc3c(c12)N[C@]1(CC[C@@H](CO)OC1)C(=O)N3 (single isomer, unassigned) | 50.9
